Laboratory results from paper PMC7036995 (Molecules, 2020).

The chains behind the UniProt entries cited, without tags or fusion partners. Residues count along the entry.
UniProt P02768, 25-609: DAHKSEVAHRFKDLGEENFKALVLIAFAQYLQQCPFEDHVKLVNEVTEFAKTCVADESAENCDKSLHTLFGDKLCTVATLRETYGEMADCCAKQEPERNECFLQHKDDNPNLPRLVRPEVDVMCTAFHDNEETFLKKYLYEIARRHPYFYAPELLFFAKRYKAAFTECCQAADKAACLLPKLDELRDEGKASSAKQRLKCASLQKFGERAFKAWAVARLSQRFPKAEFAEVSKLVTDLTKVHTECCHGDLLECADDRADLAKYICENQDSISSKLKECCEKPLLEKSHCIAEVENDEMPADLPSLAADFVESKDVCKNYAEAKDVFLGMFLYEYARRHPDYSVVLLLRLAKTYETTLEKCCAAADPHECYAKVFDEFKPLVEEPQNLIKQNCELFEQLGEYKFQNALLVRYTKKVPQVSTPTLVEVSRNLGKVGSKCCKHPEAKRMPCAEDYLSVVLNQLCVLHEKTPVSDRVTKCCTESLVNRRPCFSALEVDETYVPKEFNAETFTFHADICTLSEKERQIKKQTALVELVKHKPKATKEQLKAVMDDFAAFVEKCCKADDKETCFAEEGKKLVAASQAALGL
UniProt P02769, 25-607: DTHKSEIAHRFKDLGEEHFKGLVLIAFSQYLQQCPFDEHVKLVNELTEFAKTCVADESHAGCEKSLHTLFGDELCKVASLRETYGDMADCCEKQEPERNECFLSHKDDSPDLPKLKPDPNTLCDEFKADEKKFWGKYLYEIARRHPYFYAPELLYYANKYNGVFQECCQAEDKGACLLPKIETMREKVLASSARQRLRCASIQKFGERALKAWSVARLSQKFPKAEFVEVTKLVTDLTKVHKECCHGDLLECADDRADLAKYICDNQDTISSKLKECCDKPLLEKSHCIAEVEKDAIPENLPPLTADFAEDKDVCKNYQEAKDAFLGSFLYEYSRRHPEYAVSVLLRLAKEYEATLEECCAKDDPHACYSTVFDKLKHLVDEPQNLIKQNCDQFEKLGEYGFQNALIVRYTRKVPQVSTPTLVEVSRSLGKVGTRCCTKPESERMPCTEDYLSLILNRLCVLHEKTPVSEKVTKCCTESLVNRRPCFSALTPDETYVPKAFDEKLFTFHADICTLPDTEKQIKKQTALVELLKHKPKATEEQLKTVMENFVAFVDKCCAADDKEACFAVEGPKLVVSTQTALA

Experiments:
[1] = biological target: human serum albumin (HSA) (Homo sapiens, UniProt P02768); conditions: pH 7.4
[2] = biological target: bovine serum albumin (BSA) (Bos taurus, UniProt P02769); conditions: λEX = 295 nm, T = 310.15 K, pH 7.4, BSA 5 μM
[3] = ratio protein:ligand 1:1, HSA 1 μM, T = 310.15 K

For `O=c1c(O)c(-c2ccc(O)c(O)c2)oc2cc(O)cc(O)c12` [quercetin], which “α-Helix Content” value ([1]; ratio protein:ligand 1:0.5, HSA 1 μM, T = 310.15 K) is on record?
The value was 63.0 ± 2.0%.

What about the “α-Helix Content” value [1, 3] of the same molecule?
The value was 65.4 ± 0.5%.

What about the “α-Helix Content” value ([1]; ratio protein:ligand 1:2, HSA 1 μM, T = 310.15 K) of the same molecule?
Its value is 65.2 ± 0.9%.

And the “α-Helix Content” value ([1]; ratio protein:ligand 1:3, HSA 1 μM, T = 310.15 K)?
Its value is 66.2 ± 0.7%.

Which results are given for `CCOC(=O)[C@H](CCc1ccccc1)N[C@@H](C)C(=O)N1[C@H](C(=O)O)C[C@@H]2CCC[C@@H]21` [ramipril]?
α-Helix Content [1]: 63.0 ± 2.6% and 65.1 ± 0.5% and 68.2 ± 1.1%; α-Helix Content [1, 3]: 65.0 ± 1.7%; α-Helix Content ([1]; ratio protein:ligand 1:4, HSA 1 μM, T = 310.15 K): 70.2 ± 1.3%; change of BSA fluorescence with increasing ligand concentration [2]: decrease

Several values for one entry are separate records, joined by “and”; a condition that tells them apart may be missing. Identical values can stand only once. Like-named read-outs stand apart in the source and are kept apart here.
